Test results from US20070161611A1, “POLYCYCLIC PHENOLIC COMPOUNDS AND USE IN TREATING VIRAL INFECTIONS” (priority 2005, published 2007).

Tested on: BVDV-NADL
Assay: Protection of MDBK cells from BVDV-induced cytopathicity (MTS/PMS CPE reduction assay)
Type: cell-based, Bovine Viral Diarrhea virus
Conditions: MOI of 0.01, monotherapy run in parallel to combination studies
Description: Cell proliferation was monitored using a non-radioactive MTS/PMS assay (MTS: 3-(4,5-dimethylthiazol-2-yl)-5-(3-carboxymethoxy phenyl)-2-(4-sulfophenyl)-2H-tetrazolium (Promega, Madison, Wis.)); (PMS: phenazine methosulfate (Sigma Aldrich, St. Louis, Mo.)). MDBK cells were seeded into 96-well plates at a density of approximately 2×10^4 cells per well. The cultures were incubated 3-24 hours to permit attachment of the cells to the plates prior to infection and addition of compounds. […] A 96-well microtiter spectrophotometer plate reader was used to measure the absorbance at 490 nm after incubation of the 96-well plate for 1 to 4 hours at 37° C. in a humidified, 5% CO2 atmosphere. The mean absorbance in each set of triplicate wells was determined. Antiviral activity was measured as MTS conversion relative to the differential between the conversion for cell (non-infected) and viral (non-drug-treated) controls. The cytopathic effect (CPE) reduction for each concentration of the tested compound, which correlated with antiviral activity, was calculated as follows. % CPE reduction=[(D−ND)/(NI−ND)]×100, where D (drug-treated)=the absorbance of drug-treated cells; ND (non drug-treated)=the absorbance of untreated infected cells; and NI (non-infected)=the absorbance of non-infected cells. […]

IFN α-2b: Interferon α-2b (PBL Biomedical Laboratories)
EC50 (monotherapy): 5.79 IU/mL
